According to patent US20220226372A1 (priority 2019, published 2022):

Tests used:
HL60 cells [1] = assay: HL-60 cell viability (crystal violet); format: cell-based, Human; conditions: 48 h
[2] = tested on: C57BL6 mice splenic cells; assay: Mixed lymphocyte reaction (MLR), cell proliferation by UptiBlue; format: cell-based, mouse; conditions: arsenic compound 1 μM, mitogen CD3 5 μg/ml/CD28 2 μg/ml
HL60 cells [3] = conditions: 48 h
[4] = arsenic compound alone at 0.1, 0.5, 1, 5 and 10 μM vs control

## arsenic triiodide
HL60 cells [1]; AsI3 1 μM (Example 8)
  Effect on cell survival vs control: not effect
HL60 cells [1]; [4]
  HL-60 cell viability: concentrations with significant decrease: 10 µM
[2]
  Cell proliferation in the presence of mitogen: only significantly active on test 2
HL60 cells [3]; AsI3 1 μM (Example 8)
  Effect on H2O2 production vs control: not effect
HL60 cells [3]; [4]
  Effect on the production of H2O2: significantly reduced H2O2 production at all tested concentrations
